Measurements from patent publication US5728580A, “Methods and culture media for inducing single cell suspension in insect cell lines” (Cornell Research Foundation, Inc., priority 1996, dated 1998).

System: TN5B1-4 cells
Protocol: Three different molecular weights of dextran sulfate, derived from dextran of MW 5000, 20000, 500000, were evaluated.
Compounds were evaluated for their ability to induce single cell suspension in 50-ml spinner flasks at 160 rpm. Control cells were passaged at least 10 times in suspension before they were used in any experiments. […] A qualitative score for reduction in clumping relative to control cells was assigned to cells grown in the presence of test compound at the end of the third passage. The protocol for enzyme treatment was the same, but the seeding density was 1×10^6 cells/ml and cells were evaluated after 24 h.

DEAE-dextran [DEAE dextran] was tested, and the “Toxic above this level” value was greater than 5 µg/mL.
